Measurements reported in patent US20250324955A1, “ZEBRAFISH MODEL OF HUMAN ACUTE MYELOID LEUKEMIA AND METHOD OF USE THEREOF” (Versitech Limited, priority 2022, published 2025).

How the values were obtained:
[1] = test system: Tg(Runx1:FLT3^ITDIDH2^R172K) and Tg(Runx1:FLT3^ITDIDH2^R140Q) embryos; experiment: Drug treatment of double transgenic embryos, SBB staining as surrogate for embryonic myelopoiesis; assay type: in vivo, zebrafish; conditions: drugs at 0.01 μM, 0.1 μM and 1 μM from 6 hpf, stained at 4 dpf
Description: (§1) Drugs at three concentrations (0.01 μM, 0.1 μM and 1 μM) were added to the embryos in E3 medium with (1-phenyl-2-thiourea) PTU at 6 hpf, and the medium was changed every 24 hours. At 4 dpf, embryos were collected and fixed in 4% PFA for SSB staining. […] Adult zebrafish were anesthetized using 0.015% Tricaine. […] Treated zebrafish were then placed into an individual recovery tank with fresh sterile fish water immediately after the gavage procedure. The drug regimen was repeated daily for 14 days.

[2] = test system: FLT3^ITD and IDH2 double mutant zebrafish; experiment: 14-day oral gavage treatment of adult double transgenic leukemic fish, kidney marrow analysis; assay type: in vivo; conditions: daily oral gavage 14 days, quizartinib 10 mg/kg, enasidenib 100 mg/kg
Description: (§2) Zebrafish WKM were harvested from two to twelve months old transgenic or wildtype TU fish. The collected KM was dissociated in 0.9×PBS with 5% fetal bovine serum (FBS) by pipetting and filtered through a 40 μm nylon cell strainer (Corning, NY, USA). The cells were then centrifuged at 500 g for 5 minutes, resuspended, filtered, and washed with 0.9×PBS with 5% (FBS) at least twice. Flow cytometry of the KM was performed using a MoFlo XDP flow cytometer (Beckman coulter). The data was analyzed using FlowJo™ v10.6.1 software. Cytospin preparations were made with 2×10^5 to 3×10^5 cells cytocentrifuged at 400 rpm for 5 minutes onto microscope glass slides (Thermo scientific). The glass slides were dried at room temperature for more than 12 hours, stained with Wright-Giemsa stain, and imaged with Nikon DS-Ri2 digital camera fitted to a Nikon Eclipse Ni-U microscope.
as §1

[3] = test system: Tg(Runx1:FLT3^ITDIDH2^R140Q) zebrafish; experiment: 14-day oral gavage treatment of adult Tg(Runx1:FLT3^ITDIDH2^R140Q) fish; assay type: in vivo; conditions: adult Tg(Runx1:FLT3^ITD IDH2^R140Q) double mutant; treatment with Quizartinib and/or Enasidenib, 14 days
Description: as §2, §1

[4] = test system: Tg(Runx1:FLT3^ITDIDH2^R172K) zebrafish; experiment: 14-day oral gavage treatment of adult Tg(Runx1:FLT3^ITDIDH2^R172K) fish; assay type: in vivo; conditions: adult Tg(Runx1:FLT3^ITDIDH2^R172K) double mutants; treatment with Quizartinib and/or Enasidenib, 14 days
Description: as §2, §1

For `CC(C)(C)c1cc(NC(=O)Nc2ccc(-c3cn4c(n3)sc3cc(OCCN5CCOCC5)ccc34)cc2)no1` [quizartinib, Quizartinib], the “embryonic myelopoiesis (cytochemical staining with SBB)” value [1] was “ameliorated the increase in myelopoiesis”, the “blast counts in KM” value ([2]; alone or combined) was “reduced blast counts in KM” and the “erythroid cells in KM / erythropoiesis” value ([2]; alone or combined) was “significant increase in neutrophils and erythroid”. The “neutrophils in KM” value ([2]; alone or combined) was “significant increase in neutrophils”, the “cellularity in KM” value ([2]; monotherapy) was “significantly reduced cellularity” and the spleen size [3] was “no changes were observed in spleen size”. For the same molecule, the spleen size [4] was “decreased spleen sizes”.
